Data from patent US7422887B2, “Phospholipase A2 and gene thereof” (dated 2008).

Amino acid sequences for entries named in this document (tags omitted).
UniProt P47712, whole entry: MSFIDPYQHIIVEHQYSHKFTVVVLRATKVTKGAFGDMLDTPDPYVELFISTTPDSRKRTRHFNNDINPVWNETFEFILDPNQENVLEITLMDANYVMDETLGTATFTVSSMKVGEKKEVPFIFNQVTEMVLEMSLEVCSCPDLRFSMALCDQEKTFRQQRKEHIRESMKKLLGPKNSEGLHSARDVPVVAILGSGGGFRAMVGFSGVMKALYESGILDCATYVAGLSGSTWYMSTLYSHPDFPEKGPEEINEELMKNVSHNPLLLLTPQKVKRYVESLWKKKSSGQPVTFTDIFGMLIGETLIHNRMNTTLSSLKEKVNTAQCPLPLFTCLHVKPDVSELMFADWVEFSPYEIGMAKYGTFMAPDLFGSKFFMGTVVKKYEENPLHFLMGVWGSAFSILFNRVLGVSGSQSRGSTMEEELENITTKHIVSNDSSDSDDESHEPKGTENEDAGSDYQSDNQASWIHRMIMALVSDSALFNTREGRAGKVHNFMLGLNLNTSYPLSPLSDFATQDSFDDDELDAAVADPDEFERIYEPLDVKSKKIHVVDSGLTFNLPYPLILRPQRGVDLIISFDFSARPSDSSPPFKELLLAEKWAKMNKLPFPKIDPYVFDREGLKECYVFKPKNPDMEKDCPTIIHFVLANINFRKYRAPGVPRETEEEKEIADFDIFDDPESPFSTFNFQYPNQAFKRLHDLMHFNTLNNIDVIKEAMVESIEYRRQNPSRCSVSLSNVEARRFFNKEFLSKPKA
UniProt Q86XP0, whole entry P10T: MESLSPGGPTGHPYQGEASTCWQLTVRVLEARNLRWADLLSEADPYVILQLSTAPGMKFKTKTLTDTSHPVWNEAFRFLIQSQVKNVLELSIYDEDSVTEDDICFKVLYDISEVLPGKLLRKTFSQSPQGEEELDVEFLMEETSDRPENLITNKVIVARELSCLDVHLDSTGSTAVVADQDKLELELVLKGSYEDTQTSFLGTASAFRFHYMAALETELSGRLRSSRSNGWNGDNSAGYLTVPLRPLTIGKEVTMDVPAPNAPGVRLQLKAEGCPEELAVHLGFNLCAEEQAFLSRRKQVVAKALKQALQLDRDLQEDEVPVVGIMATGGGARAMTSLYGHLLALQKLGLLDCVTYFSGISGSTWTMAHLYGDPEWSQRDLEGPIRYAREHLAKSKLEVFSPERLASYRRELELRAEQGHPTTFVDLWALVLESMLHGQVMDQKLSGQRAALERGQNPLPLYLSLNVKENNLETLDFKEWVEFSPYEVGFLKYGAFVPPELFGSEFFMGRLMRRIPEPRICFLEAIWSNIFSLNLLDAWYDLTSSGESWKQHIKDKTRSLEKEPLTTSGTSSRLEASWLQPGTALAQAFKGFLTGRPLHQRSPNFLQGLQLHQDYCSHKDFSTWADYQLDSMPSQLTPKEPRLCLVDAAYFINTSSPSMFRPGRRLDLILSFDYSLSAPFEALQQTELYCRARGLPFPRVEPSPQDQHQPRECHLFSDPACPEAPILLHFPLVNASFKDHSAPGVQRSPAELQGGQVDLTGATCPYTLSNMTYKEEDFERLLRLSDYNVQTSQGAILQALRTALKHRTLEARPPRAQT

Columns and labels:
cPLA2α = cPLA2α (Homo sapiens, UniProt P47712); experiment: Inhibitory action on phospholipase A2 activity of cPLA2α (same method as for GS21015); details: read-out: IC50 Value for cPLA2α Activity; supernatant of lysate of COS-7 cells transfected with cPLA2α expression vector; test substance 0 to 45 μM
Protocol: First, 1 -palmitoyl-2-[^14C]arachidonyl-phosphatidylcholine (manufactured by Life Science Products) dried under a nitrogen gas was added to a reaction buffer [10 mM HEPES pH 7.5, 2 mM calcium chloride, 150 mM sodium chloride, 30% glycerol, 1 mg/ml bovine serum albumin (fatty acid-free)] so as to have a concentration of 2 μM. The mixture was stirred, immersed in a bath-type ultrasonic washing machine for 30 minutes, and thereafter stirred again. To 250 μl of this substrate solution was added 10 μl of an enzyme solution (supernatant of cell lysate of COS-7 cells into which the expression vector plasmid for GS21015 was transfected; as a control, supernatant of the cell lysate of the same cells into which only the vector was transfected) to initiate the reaction. After the reaction was carried out while keeping the temperature at 37° C. for 0, 30 or 60 minutes, 1.25 ml of a Dole's reagent (2-propanol:heptane: 1 N sulfuric acid=20:5:1) was added thereto to stop the reaction. Further, 0.1 g of silica gel for column chromatography (manufactured by Fuji Silysia Chemical Ltd.) was added thereto and stirred. Thereafter, 0.75 ml of heptane and 0.75 ml of ion-exchanged water were added thereto. The mixture was stirred for 10 seconds or longer. […] Subsequently, the radioactivity was determined with a scintillation counter. […]

GS21015 = GS21015 (Homo sapiens, UniProt Q86XP0, P10T); experiment: Inhibitory action on phospholipase A2 activity of GS21015 (release of [14C]arachidonic acid from 1-palmitoyl-2-arachidonyl-phosphatidylcholine)
Protocol: Supernatant of the cell lysate was obtained from cells overexpressing GS21015 (COS-7 cells with which the expression vector plasmid for GS21015 was transfected) in the same manner as in Example 4 mentioned above, and the resulting supernatant was used as an enzyme solution. In addition, using 1-palmitoyl-2-arachidonyl-phosphatidylcholine as a substrate, the activity of hydrolyzing this substrate (activity of hydrolyzing an ester bond at 2-position to release arachidonic acid) was determined. In addition, the determination of activity was carried out in the same manner as the method described in the literature (Underwood et al., The Journal of Biological Chemistry, 273, 21926-21932, 1998), as follows.
First, 1 -palmitoyl-2-[^14C]arachidonyl-phosphatidylcholine (manufactured by Life Science Products) dried under a nitrogen gas was added to a reaction buffer [10 mM HEPES pH 7.5, 2 mM calcium chloride, 150 mM sodium chloride, 30% glycerol, 1 mg/ml bovine serum albumin (fatty acid-free)] so as to have a concentration of 2 μM. […] Subsequently, the radioactivity was determined with a scintillation counter.
The phospholipase A2 activity of GS21015 was determined in the presence (or in the absence) of various test substances, and the inhibitory actions by various test substances were evaluated. […]

CCCCC/C=C\C/C=C\C/C=C\C/C=C\CCCCOP(=O)(F)OC (stereo not drawn)
IC50 (cPLA2α): 10 to 40 µM | IC50 (GS21015; read-out: IC50 Value for GS21015 Activity, supernatant of lysate of COS-7 cells overexpressing GS21015, no EGTA, test substance 0 to 45 μM): < 10 µM | inhibitory action on the phospholipase A2 activity of GS21015 (GS21015; statement in words): has an inhibitory action
